The results in this text go back to ChEMBL document CHEMBL3992546, “Discovery and optimization of benzimidazole derivatives as a novel chemotype of farnesoid X receptor (FXR) antagonists” (Bioorg Med Chem, 2017).

The structures appear in SMILES notation.

The target in the assay is T1, Bile acid receptor (Homo sapiens) (UniProt Q96RI1).
T1 sequence (whole entry): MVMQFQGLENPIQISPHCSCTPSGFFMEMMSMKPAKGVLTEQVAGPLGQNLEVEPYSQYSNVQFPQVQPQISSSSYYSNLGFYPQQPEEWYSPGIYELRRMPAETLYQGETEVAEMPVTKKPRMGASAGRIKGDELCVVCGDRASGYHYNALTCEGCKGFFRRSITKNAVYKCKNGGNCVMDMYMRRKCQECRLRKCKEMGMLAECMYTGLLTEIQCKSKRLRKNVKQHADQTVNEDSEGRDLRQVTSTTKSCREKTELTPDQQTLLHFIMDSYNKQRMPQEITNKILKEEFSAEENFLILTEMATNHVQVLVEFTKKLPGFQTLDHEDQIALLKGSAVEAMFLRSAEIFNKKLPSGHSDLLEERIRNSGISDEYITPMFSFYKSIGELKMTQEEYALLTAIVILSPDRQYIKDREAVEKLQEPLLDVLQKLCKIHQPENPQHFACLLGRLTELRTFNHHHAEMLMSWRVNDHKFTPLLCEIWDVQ
Description: Potency index, ratio of (Z)-guggulsterone IC50 to compound IC50 for inhibition of GW4064-induced fluorecein-labeled SRC2-2 coactivator recruitment in GST-tagged FXR LBD (unknown origin) by Lanthascreen TR-FRET assay. (TR-FRET usually uses a lanthanide donor and a delayed reading to cut background.)

Consider `C[C@@H](c1nc2ccc(C(=O)O)cc2n1C)N1C(=O)CN(c2ccc(Oc3ccccc3)cc2)C1=O`, for which the Ratio IC50 came out at 4.3.
